Molecular target: HLMs, UGT1A1, UGT1A6 and UGT1A9 (Homo sapiens, UniProt P19224)
Details: substrate diosmetin, compared with control
Procedure: The protein concentrations of the HLMs and expressed UGTs were 0.0021–0.0106 mg protein/mL. All of the incubations were run at 37°C for 30 min, and the way of pretreated and determined samples were as discribed above.

Amino acid sequences for entries named in this document (tags omitted). Residues count along the entry.
UniProt P19224, 27-532: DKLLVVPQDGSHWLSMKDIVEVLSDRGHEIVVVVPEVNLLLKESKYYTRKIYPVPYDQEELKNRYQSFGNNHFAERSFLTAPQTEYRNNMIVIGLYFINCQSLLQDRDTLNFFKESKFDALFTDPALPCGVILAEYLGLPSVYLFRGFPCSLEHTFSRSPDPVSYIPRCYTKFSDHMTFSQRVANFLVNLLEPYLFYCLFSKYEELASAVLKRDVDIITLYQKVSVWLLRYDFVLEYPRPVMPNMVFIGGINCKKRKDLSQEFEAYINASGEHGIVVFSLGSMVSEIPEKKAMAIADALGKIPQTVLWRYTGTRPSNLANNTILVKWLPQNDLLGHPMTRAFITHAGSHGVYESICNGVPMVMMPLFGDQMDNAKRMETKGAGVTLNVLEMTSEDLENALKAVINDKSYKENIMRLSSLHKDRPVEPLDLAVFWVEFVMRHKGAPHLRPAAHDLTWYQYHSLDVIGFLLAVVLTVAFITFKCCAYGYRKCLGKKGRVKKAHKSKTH

With `CCCCC1C(=O)N(c2ccccc2)N(c2ccccc2)C1=O` [phenylbutazone] the “effect on formation of Dio-7-G” value was “significantly decrease”.

From article PMC5104480 (PLoS ONE, 2016)
